Data from US6303578A, “Mu-opiate receptor peptides” (Administrators of the Tulane Educational Fund, priority 1999, dated 2001).

Target: δ receptors (Homo sapiens, UniProt P41143)
Assay: biochemical

For C[C@@H](NC(=O)[C@@H](N)Cc1ccc(O)cc1)C(=O)NCC(=O)N(C)[C@@H](Cc1ccccc1)C(=O)NCCO [DAMGO, reference compound], the Ki was 190 ± 16 nM.
